A selection: hits, their analogues and other compounds. The true share with any hit is near 2.4%.
ELG1 DNA repair = qHTS screen for small molecules that inhibit ELG1-dependent DNA repair in human embryonic kidney (HEK293T) cells expressing luciferase-tagged ELG1. HEK293T ELG1-luciferase reporter, luminescence, 16 h; DNA damage induced by 5-fluorouridine. Potency, µM (titrated, usually from 46.1 µM), for inactives: top-dose activity change, negative = inhibition, usual class: inhibitors. 330,000 compounds, 2.3% hits. AID 504467, 2011; further: on the % scale 0 is the no-effect control and ±100 the full control effect; nearly all actives have a fitted effect of over 55% in size
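Luminescence from the luciferase reporter, measured 30 min after ONE-Glo reagent at room temperature, was the read-out. Beforehand, 2,000 cells per well were exposed for 16 hr at 37 °C to 5-fluorouridine together with compound or vehicle.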
Rango dissoc inh = qHTS Assay for Inhibitors of RanGTP induced Rango (Ran-regulated importin-beta cargo) - Importin beta complex dissociation; AID 540253, 2011; Biochemical FRET Rango-importin beta, RanGTP-induced dissociation; 340,000 compounds, 0.071% hits; Potency, µM (highest dose often 46.1 µM), inactives show at the top dose activity change, negative = inhibition; Snurportin-1 (Homo sapiens) + GTP-binding nuclear protein Ran (Homo sapiens) + Importin …; calls by dose curve; further: % of control where 0% means no effect; nearly all actives have a fitted effect of over 45% in size
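Rango FRET biosensor (snurportin-1 IBB flanked by N-terminal EYFP and C-terminal CFP10) at 0.1 uM, with 0.25 uM importin beta in PBS, 1mM DTT, 0.02% Tween-20, 0.1% BSA. 0.6 uM Ran, 2mM GTP and 0.2 uM RCC1 were then added for 45 min at room temperature. Inhibition read as loss of FRET rise.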
Rango-impB inh = qHTS Assay for Inhibitors of Rango (Ran-regulated importin-beta cargo) - Importin beta complex formation; Importin subunit beta-1 (Homo sapiens), Q14974; Rango CFP/YFP FRET sensor + importin beta, 45 min; Potency, µM (top dose mostly 92.2 µM), for the others: top-dose inhibition of complex formation; 340,000 compounds, 0.031% hits; AID 540263, 2011; calls by dose curve;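 further: 0% = DMSO wells and 100% = buffer wells lacking importin beta; nearly all actives have a fitted effect of over 15% in size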
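FRET biosensor (snurportin 1 IBB flanked by EYFP and cerulean), 50 nM, with compound 5 min, then 0.125 microM importin beta in PBS, 1 mM DTT, 0.02% Tween-20, 0.1% BSA. CFP/YFP ratio read after 45 min at room temperature; pre-read flags interference.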
PGK inhibitor = qHTS Assay to Find Inhibitors of Phosphoglycerate Kinase; Phosphoglycerate kinase, glycosomal (Trypanosoma brucei brucei), P07378; 380,000 compounds, 0.043% hits; Potency, µM (titrated, usually from 57.5 µM), without a hit: at the top dose activity change, negative = inhibition, actives largely listed as inhibitors; PGK/GAPDH coupled, Kinase-Glo luminescence, 60 min; further: on the % scale 0 is the no-effect control and ±100 the full control effect; nearly all actives have a fitted effect of over 60% in size
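Luminescent ATP detection (Kinase-Glo Plus) follows a 60-minute room-temperature incubation, with wells lacking PGK as controls. Buffer: 100 mM TEA (pH 7.6), 5 mM MgCl2, 0.01% Tween-20. Coupling enzyme GAPDH (100 nM final) supplies unstable 1,3-BPG in-well.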
PKM2 act = qHTS Assay for Activators of Human Muscle isoform 2 Pyruvate Kinase. 260,000 compounds, 0.34% hits. AID 1631, 2009. Pyruvate kinase PKM (Homo sapiens), P14618. Potency, µM (highest dose often 57.5 µM), for inactives: top-dose activation, actives largely listed as activators. purified PKM2, Kinase-Glo ATP luminescence, activation; response scale: 0% is enzyme alone, no compound; further: on the % scale 0 is the no-effect control and ±100 the full control effect; nearly all actives have a fitted effect of over 55% in size
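ATP formation by purified human PK-M2, quantified via coupled luciferase luminescence after 1 h at room temperature with 0.1 mM ADP and 0.5 mM PEP final.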
Tb PFK inh = qHTS Assay to Find Inhibitors of T. brucei phosphofructokinase; T. brucei PFK, ADP-Glo luminescence; 330,000 compounds, 0.17% hits; Potency, µM (doses to about 57.5 µM), for the others: top-dose activity, negative = inhibition, hits mostly inhibitors; AID 485367, 2010;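 further: 0% = uninhibited 1x PFK enzyme wells and -100% = no-enzyme wells; nearly all actives have a fitted effect of over 60% in size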
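Activity is normalized to no-enzyme wells (full inhibition) and 1.25 nM enzyme wells (no inhibition). Reaction: 0.5 mM F6P, 0.1 mM ATP, 45 min RT, ADP-Glo luminescence; concentration-response curves fitted and classed by quality.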
* hit, by the source's call; i = inactive; ? = inconclusive; . = no result. Unless noted, the call rests on the fitted dose curve; in most records, active means well fitted curve in the direction sought with a large enough effect; inconclusive means small, poorly fitted or top-dose-only effect, or another doubt; inactive means no such curve, though single readings can be large; an effect the other way counts as inactive or inconclusive. Potency means the concentration at half of the fitted maximal effect.

Protein sequences, listed by entry. Tags and fused reporters are not part of them.
Importin subunit beta-1 (Homo sapiens), Q14974, UniProt Q14974, whole entry, looked up: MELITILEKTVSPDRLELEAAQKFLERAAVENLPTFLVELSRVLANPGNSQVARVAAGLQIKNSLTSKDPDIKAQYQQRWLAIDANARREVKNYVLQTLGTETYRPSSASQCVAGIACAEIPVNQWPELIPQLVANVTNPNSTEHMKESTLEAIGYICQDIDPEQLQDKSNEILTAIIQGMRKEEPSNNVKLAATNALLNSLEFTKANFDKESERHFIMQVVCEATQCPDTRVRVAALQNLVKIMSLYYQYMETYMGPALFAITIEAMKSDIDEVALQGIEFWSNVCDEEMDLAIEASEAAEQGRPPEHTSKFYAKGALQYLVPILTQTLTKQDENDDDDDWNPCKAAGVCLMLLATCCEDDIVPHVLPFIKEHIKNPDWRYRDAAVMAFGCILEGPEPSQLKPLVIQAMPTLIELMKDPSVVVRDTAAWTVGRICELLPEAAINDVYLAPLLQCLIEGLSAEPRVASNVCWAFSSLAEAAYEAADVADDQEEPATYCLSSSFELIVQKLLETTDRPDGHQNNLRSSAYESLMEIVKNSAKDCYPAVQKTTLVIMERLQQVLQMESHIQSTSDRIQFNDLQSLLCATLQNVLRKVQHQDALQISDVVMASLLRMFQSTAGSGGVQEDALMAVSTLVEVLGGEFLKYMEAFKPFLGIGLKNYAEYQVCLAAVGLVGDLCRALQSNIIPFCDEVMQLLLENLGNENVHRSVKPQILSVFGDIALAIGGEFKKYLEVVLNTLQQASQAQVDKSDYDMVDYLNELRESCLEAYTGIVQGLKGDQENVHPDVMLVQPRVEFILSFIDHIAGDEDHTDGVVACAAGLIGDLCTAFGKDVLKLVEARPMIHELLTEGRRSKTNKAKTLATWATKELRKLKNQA
Pyruvate kinase PKM (Homo sapiens), P14618, UniProt P14618, whole entry, looked up: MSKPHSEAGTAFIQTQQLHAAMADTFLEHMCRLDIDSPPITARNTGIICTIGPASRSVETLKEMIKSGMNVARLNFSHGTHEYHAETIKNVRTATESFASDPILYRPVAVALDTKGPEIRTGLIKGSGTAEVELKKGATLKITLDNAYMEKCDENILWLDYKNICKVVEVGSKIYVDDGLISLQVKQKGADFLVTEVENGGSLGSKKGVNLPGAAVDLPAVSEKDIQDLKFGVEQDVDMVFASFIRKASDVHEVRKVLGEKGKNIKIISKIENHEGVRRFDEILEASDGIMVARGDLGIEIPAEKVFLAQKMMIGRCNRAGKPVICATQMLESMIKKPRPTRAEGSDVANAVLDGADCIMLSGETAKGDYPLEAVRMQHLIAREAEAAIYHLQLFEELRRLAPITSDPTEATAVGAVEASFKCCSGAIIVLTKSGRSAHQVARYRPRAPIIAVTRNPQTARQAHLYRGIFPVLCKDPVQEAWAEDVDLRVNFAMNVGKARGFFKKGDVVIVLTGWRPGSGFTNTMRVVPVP

A first look, four compounds:
SMILES	ELG1 DNA repair	Rango dissoc inh	Rango-impB inh	PGK inhibitor	PKM2 act	Tb PFK inh
COc1cc(/C=C/C(=O)OCC(=O)N2CCCc3ccccc32)ccc1OCC#N	-23%	-18%	7%	-2%	.	3%
COc1cc2c(cc1OC)C(C)N(C(=O)C1COc3ccccc3O1)CC2 (stereo not given)	23µM*	-3%	-1%	-5%	1%	-1%
Cc1cc(C)cc(OCC(=O)Nc2cccc(-c3nc4ncccc4o3)c2)c1	12µM*	-23%	3%	-9%	-23%	-2%
Cc1cc(C)cc(OCC(=O)Nc2ccncc2)c1	16µM*	10%	-2%	-5%	-1%	0%

Main list, repeating the preview:
SMILES	ELG1 DNA repair	Rango dissoc inh	Rango-impB inh	PGK inhibitor	PKM2 act	Tb PFK inh
COc1cc(/C=C/C(=O)OCC(=O)N2CCCc3ccccc32)ccc1OCC#N	-23%	-18%	7%	-2%	.	3%
COc1cc2c(cc1OC)C(C)N(C(=O)C1COc3ccccc3O1)CC2 (stereo not given)	23µM*	-3%	-1%	-5%	1%	-1%
Cc1cc(C)cc(OCC(=O)Nc2cccc(-c3nc4ncccc4o3)c2)c1	12µM*	-23%	3%	-9%	-23%	-2%
Cc1cc(C)cc(OCC(=O)Nc2ccncc2)c1	16µM*	10%	-2%	-5%	-1%	0%
Cc1ccc(OCC(=O)Nc2ccncc2)cc1	-6%	-7%	7%	1%	7%	0%
O=C(O)C[C@@H]1C(=O)O[C@@H]2C(COC(=O)c3cc(O)c(O)c(O)c3)O[C@@H](OC(=O)c3cc(O)c(O)c(O)c3)[C@@H](OC(=O)c3cc(O)c(O)c4c3[C@H]1[C@H](O)C(=O)O4)[C@H]2OC(=O)c1cc(O)c(O)c(O)c1 (stereo not given in full)	-2%	.	.	.	?	1.5µM*
Cc1ccc(C)c(OCCn2cc(/C=C(/C#N)C(=O)NCC3CCCO3)c3ccccc32)c1 (stereo not given)	15µM*	-11%	?	3%	-3%	-1%
CCOC(=O)/C(C#N)=C/c1cn(CCOc2ccc(OC)cc2)c2ccccc12	12µM*	?	?	i	-8%	4%
COc1cccc(NC(=O)CN(C)C(=O)c2ccc(-c3cccc(C(F)(F)F)c3)o2)c1	-3%	4%	-5%	i	.	0%
CN(CC(=O)Nc1cccc(F)c1)C(=O)c1ccc(-c2cccc(C(F)(F)F)c2)o1	0.29µM*	-4%	-4%	-3%	.	1%
COc1cc(C(=O)NCCCNc2nc3c(C)cc(C)cc3cc2C#N)cc(OC)c1OC	?	?	?	-4%	3%	0%
COc1ccc2nc(NCCCNC(=O)c3cc(OC)c(OC)c(OC)c3)c(C#N)cc2c1	16µM*	?	?	4%	0%	-2%
COc1cc(C(=O)NCCNc2nc3ccc(C)cc3cc2C#N)cc(OC)c1OC	15µM*	?	?	2%	1%	0%
COc1ccc(C(=O)NCCNc2nc3ccc(C)cc3cc2C#N)cc1	2%	?	?	-10%	12%	-3%
COCCCN(C(=O)c1cc(Cl)nc2ccccc12)c1c(N)n(Cc2ccccc2)c(=O)[nH]c1=O	0%	36%	1%	-1%	.	-3%
Cc1ccc(C)c(N2N=C(C(=O)OCc3nnc(-c4ccccc4)o3)CCC2=O)c1	?	-4%	0%	-3%	.	-1%
CN1CCN(C(=O)c2cccc(NS(=O)(=O)c3ccc(Br)cc3)c2)CC1	-2%	-4%	0%	1%	.	-11%
CCOC(=O)N1CCN(S(=O)(=O)c2ccc3c(c2)SCC(=O)N3)CC1	21µM*	-2%	-1%	0%	5%	0%
CN1/C(=C\C=C2/SC(=S)NC2=O)C(C)(C)c2ccccc21	?	?	23µM*	-16%	-19%	2%
CCN(CC)S(=O)(=O)c1cc(NC(=O)CSCc2c(C)noc2C)ccc1C	?	0%	-2%	2%	.	-8%

Bioassay records deposited in PubChem by National Center for Advancing Translational Sciences (NCATS).
